Experimental data as given in patent US8138191B2 (dated 2012).

System: HCT-116 human colon tumor xenograft
Assay: HCT-116 human colon tumor xenograft model

Substance: cetuximab [Erbitux®]
- survival compared to the vehicle control group (Erbitux 1 mg/dose, COTI-2 25 mg/kg where combined): no significant difference in the mean survival
- Mean survival (Day ± SEM) (Erbitux ® 2.0 mg/kg IP Days 1, 4, 7, 10, 13): 13.6 ± 0.73 days
- Deaths (Erbitux ® 2.0 mg/kg IP Days 1, 4, 7, 10, 13, N 10): 0
